Measured values as given in ChEMBL document CHEMBL3997796 (J Med Chem, 2017).
Calls of active or inactive are those of the source. No cut-off for these calls is given here.

Protein sequences, listed by entry. Tags and fused reporters are not part of them. Lines headed by an entry give the natural chain unless they say otherwise; changes in a name come on top.
UniProt Q92633: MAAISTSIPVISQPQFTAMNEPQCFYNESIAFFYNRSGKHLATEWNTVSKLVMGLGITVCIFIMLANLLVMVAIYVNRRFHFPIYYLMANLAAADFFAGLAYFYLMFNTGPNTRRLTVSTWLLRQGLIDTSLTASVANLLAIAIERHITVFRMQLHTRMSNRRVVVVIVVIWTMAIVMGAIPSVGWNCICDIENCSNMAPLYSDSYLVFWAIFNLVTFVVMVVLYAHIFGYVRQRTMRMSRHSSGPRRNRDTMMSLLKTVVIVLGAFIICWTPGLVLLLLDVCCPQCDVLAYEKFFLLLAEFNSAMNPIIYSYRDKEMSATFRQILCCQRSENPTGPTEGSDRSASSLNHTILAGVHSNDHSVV

Molecular target: Lysophosphatidic acid receptor 1 (Homo sapiens, UniProt Q92633)
Assay: Antagonist activity at LPA1 receptor (unknown origin) expressed in rat RH7777 cells assessed as inhibition of LPA-induced intracellular calcium level up to 100 uM measured every 3.42 secs for 70 secs by Fura-2-AM dye based fluorescence assay relative to LPA
Format: functional, cell-based

| Emax | SMILES |
| --- | --- |
| inactive | O=C(Nc1cc(F)c(F)c(F)c1Br)c1cc(S(=O)(=O)N2CCOCC2)c(Cl)cc1Cl |
| inactive | O=S(=O)(c1cc(C(=S)Nc2cc(F)c(F)c(F)c2)c(Cl)cc1Cl)N1CCOCC1 |
